# miR122 inh = blocks miR-122 activity in Huh7 sensor cells; Huh7 miR-122 Renilla luciferase sensor, 48 h; neutral wells = 0, positive control = 100; activation (reporter increase), % at 12.5 µM; 0.3% of 340,000 active;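 active = mean replicate activation score at least 90 and every replicate individually at or above 90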;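 also: higher luciferase means less miR-122 activity so hits act as miR-122 inhibitors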
# F508del corr = correctors of CFTR F508del function in bronchial epithelial cells. AID 720511. activity (quench increase), % at 7.58 µM. CFBE cells, YFP halide quenching; stimulated with forskolin plus potentiator P3; % fluorescence drop versus neutral controls. 0.36% of 350,000 active;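 active = mean added fluorescence quench of at least 8% versus neutral control, with both replicates also reaching 8%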;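 also: cells transiently co-express mutant CFTR-F508del with the halide-sensitive YFP; corrector assay measuring rescue of mutant channel to the surface after 24 h compound exposure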
# Yeast UUG start-1 = modulators of start codon recognition fidelity in yeast; S. cerevisiae UUG-firefly luciferase reporter, luminescence/redox ratio; AID 602363; 350,000 tested, 0.13% active; activity score, % at 18.7 µM;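 active = replicate mean at a twofold rise or more, about +100% in these data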;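 also: firefly luciferase made from a UUG start codon reports start codon fidelity; reporter light over untreated wells divided by growth signal over untreated wells; some hits fall short of that in this replicate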
# PglD inh = PglD (C. jejuni) enzyme inhibition | purified PglD enzyme, DTNB colorimetric CoA detection | inhibition, % at 12.5 µM | 0.098% of 360,000 active | AID 602405; in the data active = inhibition above about 16%, passing the limit was not always enough
# EWS-Fli inh = EWS/Fli transcriptional activity inhibition; A673 NR0B1-luciferase reporter, viability-normalised; inhibition, % at 12.6 µM; 0.67% of 350,000 active;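 active = mean inhibition of at least 50% after viability correction, with every replicate also passing that limit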;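 also: firefly luciferase signal divided by Alamar Blue viability fluorescence both relative to DMSO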
# LGR2 antag = blocks bursicon-induced cAMP signaling via Drosophila LGR2. HEK293 LGR2, CRE-luciferase, bursicon-stimulated, 4 h. inhibition, % at 9.99 µM. 0.35% of 380,000 active. AID 720647;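 active = drop in luminescence signal, shown as inhibition above about 50% in the replicate tests, limit read from the data, passing the limit was not always enough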;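 also: agonist challenge used bursicon conditioned medium at about half maximal strength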
# Yeast UUG start-2 = alters UUG start codon use in yeast; AID 652061; S. cerevisiae UUG-start firefly luciferase, luminescence, 4 h; 100% means double the DMSO signal; shares compounds with Yeast UUG start-1; 540 tested, under 10 active; activation, % at 38 µM;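 active = signal increase whose fitted curve reaches an absolute level of 40 at a concentration under 10 µM; inactive = activity opposite to the expected increase, or the rest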
# * hit, by the source's call; i = inactive; . = not tested or not shown; [ ] = dose if it differs, or a comment. In the library only some 1.3% were active in any assay of this set; here they are far more common.
[1] COc1ccccc1NC(=O)N(C)C[C@H]1Oc2cc(Br)ccc2S(=O)(=O)N([C@H](C)CO)C[C@H]1C
[2] C[C@H](CO)N1C[C@H](C)[C@H](CN(C)Cc2ccccn2)Oc2cc(-c3cncnc3)ccc2S1(=O)=O
[3] Cc1ccc(-c2ccc3c(c2)O[C@H](CN(C)C(=O)Nc2ccccc2)[C@H](C)CN([C@H](C)CO)S3(=O)=O)cc1
[4] O=C(CSc1nc2nn(-c3ccccc3)c(=O)c-2c2n1CCCCC2)c1ccc(OC(F)F)cc1
[5] COc1ccc(NC(=O)CNC(=O)N2CC(=O)Nc3ccccc32)cc1OC
[6] C/C(=N\NC(=O)c1nnn(-c2nonc2N)c1CN(C)C)c1ccco1
[7] C[C@H](CO)N1C[C@H](C)[C@H](CN(C)C(=O)C2CCCCC2)Oc2cc(-c3cncnc3)ccc2S1(=O)=O
[8] CC(C)C#Cc1ccc2c(c1)O[C@@H](CN(C)C(=O)CC1CC1)[C@H](C)CN([C@H](C)CO)S2(=O)=O
compound no.	1	2	3	4	5	6	7	8
miR122 inh	14	-6[16.7 µM]	.	-13	12	0	.	0[16.7 µM]
F508del corr	4	0	-2	-4	-1	0	-2	1
Yeast UUG start-1	23	124*	122*	-4	-27	-12	16	70*
PglD inh	6	-1	0	-3	4	-4	3	-1
EWS-Fli inh	-13	-21	10	-2	2	.	3	-5
LGR2 antag	-5	6	-6	-6	-11	8	4	-14
Yeast UUG start-2	.	i	i	.	.	.	.	i

# Structural class: the entries above containing a halogen (two)
[1] COc1ccccc1NC(=O)N(C)C[C@H]1Oc2cc(Br)ccc2S(=O)(=O)N([C@H](C)CO)C[C@H]1C
[4] O=C(CSc1nc2nn(-c3ccccc3)c(=O)c-2c2n1CCCCC2)c1ccc(OC(F)F)cc1
compound no.	1	4
miR122 inh	14	-13
F508del corr	4	-4
Yeast UUG start-1	23	-4
PglD inh	6	-3
EWS-Fli inh	-13	-2
LGR2 antag	-5	-6
Yeast UUG start-2	.	.

# The results go on:
[9] C[C@H]1CN([C@@H](C)CO)S(=O)(=O)c2ccc(-c3cncnc3)cc2O[C@@H]1CN(C)C(=O)C1CCCCC1
[10] Cc1ccc(-c2ccc3c(c2)O[C@@H](CN(C)Cc2cncnc2)[C@H](C)CN([C@H](C)CO)S3(=O)=O)cc1
[11] CC(C)C#Cc1ccc2c(c1)O[C@H](CN(C)C(=O)CC1CC1)[C@H](C)CN([C@@H](C)CO)S2(=O)=O
[12] Cc1ccc(-c2ccc3c(c2)O[C@@H](CN(C)Cc2cncnc2)[C@@H](C)CN([C@H](C)CO)S3(=O)=O)cc1
[13] CNC[C@H]1Oc2cc(C#Cc3ccccc3F)ccc2S(=O)(=O)N([C@H](C)CO)C[C@@H]1C
[14] COc1cccc(NC(=O)N[C@@H]2CC[C@H](CC(=O)N3CCCCC3)O[C@H]2CO)c1
[15] CCN(CC)S(=O)(=O)c1ccc2[nH]c(=O)cc(C(=O)NCc3ccccc3)c2c1
[16] CCCCCn1c(C)c(CC(=O)Nc2ccc(Oc3cccnc3)c(C)c2)c2ccccc21
compound no.	9	10	11	12	13	14	15	16
miR122 inh	.	-17[16.7 µM]	4[16.7 µM]	-8[16.7 µM]	0[16.7 µM]	.	3	.
F508del corr	0	0	-1	2	0	1	2	-1
Yeast UUG start-1	254*	6	-16	135*	137*	.	8	.
PglD inh	-2	2	-2	1	3	-1	-2	.
EWS-Fli inh	-9	18	-4	-11	-1	-1	3	8
LGR2 antag	-6	17	-5	6	3	14	1	21
Yeast UUG start-2	i	.	.	i	i	.	.	.

[17] CCCC#Cc1ccc([C@@H]2[C@H]3CN(C(=O)Nc4cc(F)ccc4F)CC(=O)N3[C@H]2CO)cc1
[18] CCCC#Cc1ccc2c(c1)O[C@@H](CN(C)C)[C@@H](C)CN([C@H](C)CO)S2(=O)=O
[19] CCCC#Cc1ccc2c(c1)O[C@@H](CN(C)Cc1cncnc1)[C@@H](C)CN([C@H](C)CO)S2(=O)=O
[20] CCCC#Cc1ccc2c(c1)O[C@@H](CN(C)C(=O)CN(C)C)[C@H](C)CN([C@H](C)CO)S2(=O)=O
[21] CCCC#Cc1ccc2c(c1)O[C@H](CN(C)Cc1cncnc1)[C@@H](C)CN([C@@H](C)CO)S2(=O)=O
[22] N#Cc1ccccc1OCc1cn(CC(=O)c2ccc(O)cc2)nn1
[23] C[C@@H]1CN([C@@H](C)CO)C(=O)c2cc(C#CCN(C)C)cnc2O[C@H]1CN(C)C(=O)Cc1ccccc1
[24] C[C@@H]1CN([C@@H](C)CO)C(=O)c2cc(C#CCN(C)C)cnc2O[C@@H]1CN(C)C(=O)Cc1ccccc1
compound no.	17	18	19	20	21	22	23	24
miR122 inh	.	-2[16.7 µM]	11[16.7 µM]	-6[16.7 µM]	7[16.7 µM]	3	11[16.7 µM]	6[16.7 µM]
F508del corr	4	0	1	1	-3	1	1	1
Yeast UUG start-1	.	128*	2	150*	80*	152*	.	176*
PglD inh	.	-2	2	-2	-3	2	3	2
EWS-Fli inh	10	3	5	3	25	-20	-3	-2
LGR2 antag	7	-4	-4	11	-17	-3	1	12
Yeast UUG start-2	.	i	.	i	i	11	.	i

[25] C[C@@H]1CN([C@@H](C)CO)C(=O)c2cc(C#Cc3ccccc3F)cnc2O[C@@H]1CN(C)C(=O)Cc1cccnc1
[26] O=C(NC(=S)Nc1ccc2oc(=O)ccc2c1)c1ccccc1F
[27] O=S(=O)(N[C@@H]1CC[C@H](CCn2cc(-c3cccnc3)nn2)O[C@@H]1CO)c1ccc(Cl)cc1
[28] O=S(=O)(N[C@H]1CC[C@@H](CCn2cc(-c3cccnc3)nn2)O[C@@H]1CO)c1ccc(Cl)cc1
[29] COCc1cn(CC[C@H]2CC[C@H](NC(=O)Nc3c(C)noc3C)[C@H](CO)O2)nn1
[30] O=C(Cc1ccccn1)N[C@H]1CC[C@@H](CCNS(=O)(=O)c2cccc(F)c2)O[C@@H]1CO
[31] O=C(Cc1ccccn1)NCC[C@@H]1CC[C@H](NS(=O)(=O)c2ccc(Cl)cc2)[C@H](CO)O1
[32] O=C(Cc1ccccn1)N[C@H]1CC[C@@H](CCNS(=O)(=O)c2cccc(F)c2)O[C@H]1CO
compound no.	25	26	27	28	29	30	31	32
miR122 inh	.	-1	.	.	7[16.7 µM]	27[16.7 µM]	.	6[16.7 µM]
F508del corr	2	0	-2	0	-2	2	2	1
Yeast UUG start-1	153*	-4	102*	-5	194*	243*	103*	3
PglD inh	-3	-11	-2	-2	-5	0	0	5
EWS-Fli inh	1	-11	8	8	-6	4	-4	-6
LGR2 antag	7	-15	2	-9	-10	-15	-2	-6
Yeast UUG start-2	i	.	i	.	i	i	i	.

# In another format: two of the compounds above.
# Values run as follows: miR122 inh	F508del corr	Yeast UUG start-1	PglD inh	EWS-Fli inh	LGR2 antag	Yeast UUG start-2
[25] C[C@@H]1CN([C@@H](C)CO)C(=O)c2cc(C#Cc3ccccc3F)cnc2O[C@@H]1CN(C)C(=O)Cc1cccnc1
→ .	2	153*	-3	1	7	i
[26] O=C(NC(=S)Nc1ccc2oc(=O)ccc2c1)c1ccccc1F
→ -1	0	-4	-11	-11	-15	.

# (list continues)
[33] Cc1cc(-c2n[nH]c(=S)n2-c2ccc(F)cc2)nn1C
[34] CCN(CC(=O)Nc1ccc2c(c1)OCCO2)S(=O)(=O)c1cccs1
[35] COc1ccc(OC)c(S(=O)(=O)NCc2cn3ccsc3n2)c1
[36] Cc1cccc(C(=O)NCC(=O)OCC(=O)c2ccc(C)s2)c1
[37] COc1cccc(-c2cn(CC[C@@H]3CC[C@H](NC(=O)CC4CC4)[C@@H](CO)O3)nn2)c1
[38] CCOC(=O)Cn1nc(C)n(-c2cccc(Cl)c2)c1=O
[39] CCOC(=O)Cn1nc(C)n(-c2ccc(Cl)cc2)c1=O
[40] O=C(NCc1ccccn1)c1c(-c2ccccc2)sc2ccccc12
compound no.	33	34	35	36	37	38	39	40
miR122 inh	.	4	.	.	.	23	.	4
F508del corr	3	.	0	1	-2	1	0	2
Yeast UUG start-1	.	-18	.	-20	155*	223*	.	62*
PglD inh	.	-2	.	9	-35	1	.	-1
EWS-Fli inh	11	.	3	1	-3	2	3	8
LGR2 antag	-13	.	-4	-5	3	-10	0	-10
Yeast UUG start-2	.	.	.	.	i	-3	.	4

# Assay outcomes as filed in PubChem.
